# Compound activity as filed in PubChem.
# This is a sample that favours compounds with a hit; in the whole collection about 2.2% have one here.
# ERp5 inh = inhibitors of ERp5-driven insulin aggregation, primary screen, biochemical, turbidity, absorbance 650 nm, single point; Protein disulfide-isomerase A6 (Homo sapiens), Q15084; 90 min; inhibition, % at 9.99 µM; actives 0.05% (n = 350,000);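 active = mean replicate inhibition above about 25%, with every replicate also reaching it, limit read from the data, passing the limit was not always enough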
# SIRT5 block = SIRT5 desuccinylase inhibitors, primary screen, biochemical, fluorescence imaging, single point, set 5. NAD-dependent protein deacylase sirtuin-5, mitochondrial (Homo sapiens), Q9NXA8. Purified SirT5, succinyl-peptide AMC, trypsin-coupled fluorescence. inhibition, % at 15 µM. actives 1.1% (n = 330,000); in the data active = inhibition above about 15%
# S100A4 MyoIIA = inhibitors of S100A4-myosin IIA peptide binding, primary screen, biochemical, fluorescence polarization, TAMRA-MyoIIA peptide. Protein S100-A4 (Homo sapiens), P26447. inhibition, % at 10.7 µM. actives 0.14% (n = 360,000). AID 652163, 2013;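 active = mean inhibition of at least 70% across replicates, with every replicate also reaching that level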
#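 assay system = human S100A4 monomer with TAMRA-labelled myosin IIA peptide | also added = labelled myosin peptide probe, 5 nM | incubation = 5 min between mix addition and reading | control set = DMSO and TFP controls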
# UUG fidelity = modulators of start codon recognition fidelity in yeast; S. cerevisiae UUG-firefly luciferase reporter, luminescence/redox ratio; activity score, % at 18.7 µM; hit rate 0.13% among 350,000; AID 602363;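 active = replicate mean at a twofold rise or more, about +100% in these data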;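 note: firefly luciferase made from a UUG start codon reports start codon fidelity; reporter light over untreated wells divided by growth signal over untreated wells; some hits fall short of that in this replicate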
# FGF22 binding = binders of human FGF22 protein, primary screen, FGF22 synaptogenesis inhibitor project, biophysical, thermal shift, single point; Fibroblast growth factor 22 (Homo sapiens), Q9HCT0; recombinant FGF22 thermal shift, SYPRO orange fluorescence; percent of sucrose octasulfate shift, DMSO zero; activity (Tm shift, normalised), % at 9.99 µM; actives 1.5% (n = 340,000); AID 651658, 2012;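 active = mean Tm shift, scaled 0 neutral to 100 positive control, at about 1.3% or above, every replicate too, limit read from the data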
# PDI inh = inhibitors of human PDI, primary screen, biochemical, turbidity, single point, plate reader; actives 0.052% (n = 350,000); inhibition, % at 10 µM; AID 588391, 2011; PDI insulin aggregation turbidity, A650, 90 min;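 active = mean inhibition across replicates of 30% or more, whatever share of single replicates reach that level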
# A number is an active result; . = inactive; / = no result given.
SMILES,ERp5 inh,SIRT5 block,S100A4 MyoIIA,UUG fidelity,FGF22 binding,PDI inh
O=C(O)c1ccc(NS(=O)(=O)c2ccc3c(c2)C2C=CCC2C(c2ccccc2F)N3)cc1 (stereo unspecified),.,51.3,.,/,/,.
Nc1nccc(-c2cccs2)n1,.,.,.,/,43.4,.
CCOc1ccc(NC(C)=O)cc1[N+](=O)[O-],.,.,.,/,43.4,.
COc1ccc(CN(C)C[C@H]2Oc3c(NS(=O)(=O)c4ccc(C)cc4)cccc3C(=O)N([C@@H](C)CO)C[C@H]2C)cc1,.,.,.,/,.,/
CSc1cccc(NC(=O)C2CCN(S(=O)(=O)c3ccc4c(c3)NC(=O)CO4)CC2)c1,.,.,85.8,.,.,.
O=C(NCCN1CCOCC1)C1CCC(CNS(=O)(=O)c2ccc(Cl)cc2)CC1 (stereo unspecified),.,24.4,.,.,.,.
O=C(NCCCN1CCCC1=O)C1CCC(CNS(=O)(=O)c2ccc(Cl)cc2)CC1 (stereo unspecified),.,.,.,.,.,.
CNc1nc(NCCOc2ccccc2Cl)c2sccc2n1,.,.,.,.,.,.
Clc1ccccc1OCCNc1nc(NCC2CC2)nc2ccsc12,.,22.5,.,.,.,.
CO[C@@H]1CN(C)C(=O)c2ccc(NS(=O)(=O)CC(F)(F)F)cc2OC[C@@H](C)N(C(=O)c2ccc3c(c2)OCO3)C[C@H]1C,.,/,.,.,/,/
CC(C)N(C[C@H]1N[C@@H](CO)[C@H]1c1ccccc1)C(=O)c1ccccc1,.,.,.,.,.,/
COc1ccc(S(=O)(=O)Nc2ccc3c(c2)[C@@H]2C[C@H](CC(=O)NCC4CC4)O[C@H](CO)[C@@H]2O3)cc1,.,.,.,/,.,/
Cc1ccc(C)c(NC(=O)Cn2nc([N+](=O)[O-])c(Br)c2C)c1,.,32.9,.,.,.,.
COCCN=c1scc(-c2cccs2)n1/N=C/c1ccc(O)c(O)c1O,.,.,.,/,89.0,.
CCN=c1scc(C)n1/N=C/c1ccc(O)c(O)c1O,/,/,/,.,/,.
N#Cc1cccc(-c2ccc(C3[C@@H]4CN(C(=O)Cc5ccccc5)C[C@H]3N4)cc2)c1 (stereo partly specified),.,.,.,/,/,/
Cc1ccc(S(=O)(=O)c2nc(Cc3ccccc3)oc2N2CCOCC2)cc1,.,18.3,.,.,.,.
Cc1ccc(S(=O)(=O)c2nc(-c3ccccc3)oc2N2CCCC2)cc1,.,.,.,.,.,.
Cc1cc(C)cc(NC(=O)C2CCN(S(=O)(=O)c3ccc4c(c3)NC(=O)C(C)S4)CC2)c1 (stereo unspecified),.,.,.,.,.,.
Cc1ccccc1NC(=O)C1CCN(S(=O)(=O)c2ccc3c(c2)NC(=O)C(C)S3)CC1 (stereo unspecified),.,.,111.4,.,.,.
CN(C)S(=O)(=O)c1cccc(NC(=O)c2cc3c(=O)n4ccccc4nc3s2)c1,.,16.0,.,/,.,.
CCC(=O)N(C)C[C@H]1Oc2cc(C#CCC(C)C)ccc2S(=O)(=O)N([C@@H](C)CO)C[C@H]1C,.,.,.,.,.,/
Nc1nc(SCn2nnc3ccccc3c2=O)n[nH]1,.,.,.,.,43.2,.
COCCN(C(=S)Nc1ccccc1C)C(C)c1ccco1 (stereo unspecified),.,.,.,.,43.2,.
CCCc1nnc(NC(=O)CCC(=O)Nc2ccc(Cl)cc2)s1,.,.,.,.,.,.
SMILES,ERp5 inh,SIRT5 block,S100A4 MyoIIA,UUG fidelity,FGF22 binding,PDI inh
CCc1nnc(NC(=O)CCC(=O)Nc2ccc(Cl)cc2)s1,.,.,.,/,43.2,.
CCC(C(=O)Nc1ccccc1N1CCCC1)c1ccccc1 (stereo unspecified),.,.,.,.,.,.
CCC(C(=O)Nc1cccc(C(=O)O)c1C)c1ccccc1 (stereo unspecified),.,.,.,/,42.9,.
COc1ccc(C(=O)C2CCN(C(=S)NCCc3ccc(OC)c(OC)c3)CC2)cc1,.,.,.,/,.,.
COc1ccc(C(=O)C2CCN(C(=S)NCCc3ccccc3)CC2)cc1,.,16.2,.,/,.,.
CNC(=O)C[C@H]1CC[C@@H]2[C@H](COc3ccc(NC(=O)Nc4cccc(C)c4)cc3C(=O)N2C)O1,.,.,.,.,.,/
C[C@H](CO)N1C[C@H](C)[C@H](CN(C)Cc2ccc(Oc3ccccc3)cc2)Oc2ccc(NC(=O)C3CCCCC3)cc2C1=O,/,/,/,.,/,/
CCN(C(=O)CSc1nc2cc(Cl)ccc2c(=O)n1Cc1ccco1)C1CCS(=O)(=O)C1 (stereo unspecified),.,.,.,/,43.7,.
CCN(C(=O)CSc1nc2cc(Cl)ccc2c(=O)n1CC(C)C)C1CCS(=O)(=O)C1 (stereo unspecified),.,.,.,.,.,.
CC1CN(C(=O)c2ccccc2Nc2ccc(SC(F)F)cc2)CC(C)O1 (stereo unspecified),.,.,.,.,43.9,.
CN(C)CCN(Cc1ccco1)c1ccccn1,.,/,.,/,43.0,.
CCOC(=O)C1C(c2cccc([N+](=O)[O-])c2)C2C(=O)NN=C2CC1(C)O (stereo unspecified),.,.,.,/,43.0,.
O=c1[nH]cnc2c1sc1nc(-c3ccccc3)c3c(c12)CCCC3,.,.,.,/,.,.
O=C(O)CSc1ncnc2c1sc1nc(-c3ccccc3)c3c(c12)CCC3,.,18.1,.,/,.,.
CN(Cc1ccccc1)C(=O)CCN1C(=O)c2cccc([N+](=O)[O-])c2C1=O,.,/,.,/,43.5,.
CC1=NN(c2ccc(C(=O)O)cc2)C(=O)/C1=C\c1ccc(OC(=O)c2cccs2)cc1,.,.,.,/,43.1,.
Cc1ccc(N2CC(C(=O)Nc3c(C)n(C)n(-c4ccccc4)c3=O)CC2=O)cc1 (stereo unspecified),.,.,.,/,.,.
CCOc1ccccc1N1CC(C(=O)Nc2c(C)n(C)n(-c3ccccc3)c2=O)CC1=O (stereo unspecified),.,.,.,/,43.3,.
Cc1ccc2nc(C)cc(C(=O)OCC(=O)Nc3c(C)n(C)n(-c4ccccc4)c3=O)c2c1,.,.,.,/,43.4,.
Cc1c(NC(=O)COC(=O)c2cc(-c3cccc4ccccc34)nc3ccccc23)c(=O)n(-c2ccccc2)n1C,/,/,/,/,/,.
